Protein sequences, listed by entry. Tags and fused reporters are not part of them. Residues count along the entry.
UniProt P07711, 114-333 limits assumed: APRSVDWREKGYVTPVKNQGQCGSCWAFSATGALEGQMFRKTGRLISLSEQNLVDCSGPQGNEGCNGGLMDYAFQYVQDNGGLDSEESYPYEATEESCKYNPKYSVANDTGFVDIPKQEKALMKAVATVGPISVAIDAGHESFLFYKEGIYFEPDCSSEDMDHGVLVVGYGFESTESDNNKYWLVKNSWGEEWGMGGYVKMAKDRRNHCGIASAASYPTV

In patent publication US11952365B2, “Anti-viral compounds” (Aligos Therapeutics, Inc., priority 2020, dated 2024):

What was measured:
Vero E6-eGFP cells = experiment: Toxicity of compounds in the absence of virus (MTS-assay)
human cathepsin L = human cathepsin L (Homo sapiens, UniProt P07711); experiment: cathepsin L assay; assay type: biochemical; conditions: read-out: Cathepsin L IC50; 10 pM human cathepsin L, Z-FR-AMC 2 μM, class symbols
Procedure: For the cathepsin L assay, 10 pM of human cathepsin L (R&D Systems; Minneapolis, MN) was preincubated for 30 mins with test compounds. Reactions were initiated by the addition of a peptide substrate Z-FR-AMC (final concentration 2 μM, Anaspec; Fremont, CA). Fluorescence was measured at 2-minute intervals for 30 mins using a 355/460 excitation/emission filter module on an Envision plate reader (Perkin Elmer; Waltham, MA). The IC50 values were calculated for each assay by fitting the curves using a four-parameter equation in GraphPad Prism.

Huh7 cells = experiment: Compound-specific side effects on Huh7 cell viability (MTS)
HeLa cells = experiment: Cytotoxicity plates without OC43 virus (cell-titer-glo); conditions: class symbols
[1] = read-out: VeroE6 + CP (CC50), Vero E6-eGFP cells with CP-100356, absence of virus, class symbols
[2] = read-out: Huh-7 (CC50), class symbols
[3] = read-out: Huh-7 (CC50), numeric bounds

| SMILES | CC50 (Vero E6-eGFP cells; [1]) [µM] | IC50 (human cathepsin L) [µM] | CC50 (Huh7 cells; [2]) [µM] | CC50 (HeLa cells) [µM] | CC50 (Vero E6-eGFP cells; read-out: VeroE6 + CP (CC50), Vero E6-eGFP cells with CP-100356, absence of virus, numeric bounds) [µM] | CC50 (Huh7 cells; [3]) [µM] |
| --- | --- | --- | --- | --- | --- | --- |
| COc1cccc2[nH]c(C(=O)N3C[C@@H]4CCC[C@@H]4[C@H]3C(=O)N[C@@H](C[C@H]3CC(C)(C)NC3=O)C(=O)COCc3ccccc3)cc12 | > 10 | > 10 | > 10 | > 10 | – | – |
| COc1cccc2[nH]c(C(=O)N3C[C@@H]4CCC[C@@H]4[C@H]3C(=O)N[C@@H](C[C@@H]3CCNC3=O)C(=O)C(=O)N(C)Cc3ccccc3)cc12 [Compound 109A] | > 10 | > 10 | > 10 | > 10 | – | – |
| COc1cccc2[nH]c(C(=O)N3C[C@@H]4CCC[C@@H]4[C@H]3C(=O)N[C@@H](C[C@@H]3CCNC3=O)C(=O)C(=O)N(C)Cc3ccccc3)cc12 [109B] | – | > 10 | > 10 | > 10 | > 50 | – |
| COc1cccc2[nH]c(C(=O)N3C[C@@H]4CCC[C@@H]4[C@H]3C(=O)N[C@@H](C[C@@H]3CCNC3=O)C(=O)C3CCCO3)cc12 (single isomer, unassigned) [69_B] | – | > 10 | – | > 10 | – | > 100 |
| COc1cccc2[nH]c(C(=O)N3CC4CCCC4C3C(=O)NC(C=O)CC3CCNC3=O)cc12 (centres unmarked) | – | > 10 | – | > 10 | – | – |
| COc1cccc2[nH]c(C(=O)N3C[C@@H]4CCC[C@@H]4[C@H]3C(=O)N[C@@H](C[C@@H]3CCNC3=O)C(=O)C3CCCO3)cc12 (single isomer, unassigned) [69_A] | – | > 10 | – | > 10 | – | > 100 |

Read-outs that look alike come from different tables or passages of the source.
